Reference: US20260240847A1, “COMPOUNDS WITH ANTI-TUMOR ACTIVITY AGAINST CANCER CELLS BEARING TYROSINE KINASE INHIBITOR RESISTANT EGFR MUTATIONS” (BOARD OF REGENTS, THE UNIVERSITY OF TEXAS SYSTEM, priority 2019, published 2026)

Protein sequences, listed by entry. Tags and fused reporters are not part of them. Residues count along the entry.
UniProt P00533, 25-1210 G719A/T790M: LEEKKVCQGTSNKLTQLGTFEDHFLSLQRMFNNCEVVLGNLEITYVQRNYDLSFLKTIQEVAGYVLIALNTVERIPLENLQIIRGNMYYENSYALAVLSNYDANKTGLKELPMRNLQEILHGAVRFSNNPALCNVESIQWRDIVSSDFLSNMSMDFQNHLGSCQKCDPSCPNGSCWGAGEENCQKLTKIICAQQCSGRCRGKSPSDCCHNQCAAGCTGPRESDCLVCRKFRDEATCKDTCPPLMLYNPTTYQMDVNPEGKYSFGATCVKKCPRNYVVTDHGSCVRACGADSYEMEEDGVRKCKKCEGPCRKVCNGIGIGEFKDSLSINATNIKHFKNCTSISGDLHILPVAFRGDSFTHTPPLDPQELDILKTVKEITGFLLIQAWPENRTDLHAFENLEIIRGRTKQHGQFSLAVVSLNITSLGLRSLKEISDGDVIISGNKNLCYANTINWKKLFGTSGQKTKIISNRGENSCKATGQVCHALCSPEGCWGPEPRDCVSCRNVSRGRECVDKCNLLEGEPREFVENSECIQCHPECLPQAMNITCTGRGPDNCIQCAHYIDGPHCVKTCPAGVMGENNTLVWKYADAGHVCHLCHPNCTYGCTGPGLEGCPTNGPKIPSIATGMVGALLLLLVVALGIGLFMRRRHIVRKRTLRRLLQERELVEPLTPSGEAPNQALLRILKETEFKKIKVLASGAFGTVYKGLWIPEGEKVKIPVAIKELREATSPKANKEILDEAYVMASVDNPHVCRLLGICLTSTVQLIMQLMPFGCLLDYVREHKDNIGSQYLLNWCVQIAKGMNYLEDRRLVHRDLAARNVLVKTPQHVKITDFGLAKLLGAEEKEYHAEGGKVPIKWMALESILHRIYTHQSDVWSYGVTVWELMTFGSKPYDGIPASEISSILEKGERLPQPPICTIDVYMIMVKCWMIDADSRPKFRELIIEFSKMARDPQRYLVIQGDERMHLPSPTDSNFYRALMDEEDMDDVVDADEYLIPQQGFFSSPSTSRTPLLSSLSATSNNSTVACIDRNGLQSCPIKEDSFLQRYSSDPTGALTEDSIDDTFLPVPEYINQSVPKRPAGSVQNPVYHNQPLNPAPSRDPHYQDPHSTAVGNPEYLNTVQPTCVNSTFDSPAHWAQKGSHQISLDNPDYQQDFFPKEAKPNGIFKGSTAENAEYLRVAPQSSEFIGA
UniProt P00533, 25-1210 G719A/R776C: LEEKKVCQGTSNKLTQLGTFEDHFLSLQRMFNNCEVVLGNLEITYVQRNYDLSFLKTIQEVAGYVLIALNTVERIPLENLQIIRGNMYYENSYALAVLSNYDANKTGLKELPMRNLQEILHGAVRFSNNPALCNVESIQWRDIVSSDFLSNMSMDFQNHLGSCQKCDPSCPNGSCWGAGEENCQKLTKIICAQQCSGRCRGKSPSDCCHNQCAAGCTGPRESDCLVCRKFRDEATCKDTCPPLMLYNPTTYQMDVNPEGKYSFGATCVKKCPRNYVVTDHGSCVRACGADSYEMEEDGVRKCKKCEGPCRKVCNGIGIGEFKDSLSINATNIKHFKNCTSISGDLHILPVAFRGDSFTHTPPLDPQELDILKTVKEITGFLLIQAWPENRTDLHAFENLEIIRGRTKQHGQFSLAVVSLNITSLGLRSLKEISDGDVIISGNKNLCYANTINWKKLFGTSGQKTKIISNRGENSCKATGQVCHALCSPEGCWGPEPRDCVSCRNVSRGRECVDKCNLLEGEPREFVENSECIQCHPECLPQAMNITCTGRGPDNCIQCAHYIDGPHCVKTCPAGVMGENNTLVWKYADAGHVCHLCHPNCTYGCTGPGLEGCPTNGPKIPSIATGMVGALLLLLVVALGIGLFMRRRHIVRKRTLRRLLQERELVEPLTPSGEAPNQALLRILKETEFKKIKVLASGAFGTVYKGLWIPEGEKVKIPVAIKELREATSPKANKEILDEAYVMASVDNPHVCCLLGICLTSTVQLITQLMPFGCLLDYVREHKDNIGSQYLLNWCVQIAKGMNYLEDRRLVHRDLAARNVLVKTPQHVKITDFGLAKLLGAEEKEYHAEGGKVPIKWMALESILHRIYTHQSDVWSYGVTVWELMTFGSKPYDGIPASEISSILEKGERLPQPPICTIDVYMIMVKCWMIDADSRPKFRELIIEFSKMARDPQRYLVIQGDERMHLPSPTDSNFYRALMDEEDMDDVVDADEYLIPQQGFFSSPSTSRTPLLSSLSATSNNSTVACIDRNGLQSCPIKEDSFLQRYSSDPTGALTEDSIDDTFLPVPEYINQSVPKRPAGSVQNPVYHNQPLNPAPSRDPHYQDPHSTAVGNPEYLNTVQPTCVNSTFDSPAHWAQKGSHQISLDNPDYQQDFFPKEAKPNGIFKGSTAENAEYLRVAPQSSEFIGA
UniProt P00533, 25-1210 R776C: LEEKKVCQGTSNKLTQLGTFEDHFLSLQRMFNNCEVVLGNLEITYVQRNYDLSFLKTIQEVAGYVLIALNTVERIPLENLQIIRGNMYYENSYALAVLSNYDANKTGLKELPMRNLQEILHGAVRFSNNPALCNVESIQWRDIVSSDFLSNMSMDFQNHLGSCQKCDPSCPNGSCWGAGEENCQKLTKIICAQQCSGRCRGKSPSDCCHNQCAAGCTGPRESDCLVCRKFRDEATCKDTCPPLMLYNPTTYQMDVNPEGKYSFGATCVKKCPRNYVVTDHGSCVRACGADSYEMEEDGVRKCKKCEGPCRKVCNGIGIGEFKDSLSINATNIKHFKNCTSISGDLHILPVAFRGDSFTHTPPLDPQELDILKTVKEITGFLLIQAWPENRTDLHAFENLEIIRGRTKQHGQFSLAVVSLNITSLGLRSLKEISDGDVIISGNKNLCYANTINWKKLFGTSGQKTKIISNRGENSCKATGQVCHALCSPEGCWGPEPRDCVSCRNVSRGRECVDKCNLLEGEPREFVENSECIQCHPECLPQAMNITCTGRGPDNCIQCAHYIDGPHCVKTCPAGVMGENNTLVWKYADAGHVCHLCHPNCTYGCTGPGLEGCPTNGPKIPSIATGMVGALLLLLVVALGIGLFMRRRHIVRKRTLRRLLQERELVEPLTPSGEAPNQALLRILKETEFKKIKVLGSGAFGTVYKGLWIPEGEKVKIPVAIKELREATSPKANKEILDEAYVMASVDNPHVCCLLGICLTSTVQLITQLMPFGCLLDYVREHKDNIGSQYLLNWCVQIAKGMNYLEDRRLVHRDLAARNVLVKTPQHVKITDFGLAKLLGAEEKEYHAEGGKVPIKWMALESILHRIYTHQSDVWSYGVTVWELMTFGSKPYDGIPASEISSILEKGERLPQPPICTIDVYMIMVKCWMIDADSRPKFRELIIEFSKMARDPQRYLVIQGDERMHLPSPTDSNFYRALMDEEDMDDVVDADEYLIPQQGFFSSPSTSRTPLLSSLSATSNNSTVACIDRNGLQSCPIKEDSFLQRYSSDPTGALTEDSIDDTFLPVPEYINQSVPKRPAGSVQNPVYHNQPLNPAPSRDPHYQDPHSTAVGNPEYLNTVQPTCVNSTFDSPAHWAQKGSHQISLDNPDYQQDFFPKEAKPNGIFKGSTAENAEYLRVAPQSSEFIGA
UniProt P00533, 25-1210 L861Q: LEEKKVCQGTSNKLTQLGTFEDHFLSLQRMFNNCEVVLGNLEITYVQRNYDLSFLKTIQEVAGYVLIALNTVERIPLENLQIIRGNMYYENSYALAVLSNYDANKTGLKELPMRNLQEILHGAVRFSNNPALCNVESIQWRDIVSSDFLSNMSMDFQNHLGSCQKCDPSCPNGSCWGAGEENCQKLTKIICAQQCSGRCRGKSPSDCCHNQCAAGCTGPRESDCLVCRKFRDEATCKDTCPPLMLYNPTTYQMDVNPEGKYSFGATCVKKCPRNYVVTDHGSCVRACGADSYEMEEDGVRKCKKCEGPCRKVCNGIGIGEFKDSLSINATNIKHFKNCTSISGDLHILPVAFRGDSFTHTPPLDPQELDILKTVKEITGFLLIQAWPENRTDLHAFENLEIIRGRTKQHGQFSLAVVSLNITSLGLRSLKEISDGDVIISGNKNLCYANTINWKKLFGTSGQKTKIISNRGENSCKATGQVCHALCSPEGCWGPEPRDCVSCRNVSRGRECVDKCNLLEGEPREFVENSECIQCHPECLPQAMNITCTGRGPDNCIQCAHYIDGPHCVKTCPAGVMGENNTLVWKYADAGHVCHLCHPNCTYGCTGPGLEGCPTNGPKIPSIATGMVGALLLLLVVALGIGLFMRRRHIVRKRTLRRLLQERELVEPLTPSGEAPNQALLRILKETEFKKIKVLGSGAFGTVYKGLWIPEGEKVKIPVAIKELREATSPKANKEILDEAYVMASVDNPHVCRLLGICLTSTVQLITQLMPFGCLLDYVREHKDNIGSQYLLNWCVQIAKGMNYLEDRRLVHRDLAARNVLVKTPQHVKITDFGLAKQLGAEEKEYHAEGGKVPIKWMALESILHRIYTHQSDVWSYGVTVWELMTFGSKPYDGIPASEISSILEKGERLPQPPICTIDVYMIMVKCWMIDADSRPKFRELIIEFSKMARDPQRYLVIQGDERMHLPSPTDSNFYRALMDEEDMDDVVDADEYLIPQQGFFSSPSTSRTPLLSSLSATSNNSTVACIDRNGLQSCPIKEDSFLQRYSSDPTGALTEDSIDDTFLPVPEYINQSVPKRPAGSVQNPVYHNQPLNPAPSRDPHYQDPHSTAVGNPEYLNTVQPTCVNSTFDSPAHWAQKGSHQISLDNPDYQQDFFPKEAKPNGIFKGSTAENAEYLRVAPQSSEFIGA
UniProt P00533, 25-1210 E709K/L858R: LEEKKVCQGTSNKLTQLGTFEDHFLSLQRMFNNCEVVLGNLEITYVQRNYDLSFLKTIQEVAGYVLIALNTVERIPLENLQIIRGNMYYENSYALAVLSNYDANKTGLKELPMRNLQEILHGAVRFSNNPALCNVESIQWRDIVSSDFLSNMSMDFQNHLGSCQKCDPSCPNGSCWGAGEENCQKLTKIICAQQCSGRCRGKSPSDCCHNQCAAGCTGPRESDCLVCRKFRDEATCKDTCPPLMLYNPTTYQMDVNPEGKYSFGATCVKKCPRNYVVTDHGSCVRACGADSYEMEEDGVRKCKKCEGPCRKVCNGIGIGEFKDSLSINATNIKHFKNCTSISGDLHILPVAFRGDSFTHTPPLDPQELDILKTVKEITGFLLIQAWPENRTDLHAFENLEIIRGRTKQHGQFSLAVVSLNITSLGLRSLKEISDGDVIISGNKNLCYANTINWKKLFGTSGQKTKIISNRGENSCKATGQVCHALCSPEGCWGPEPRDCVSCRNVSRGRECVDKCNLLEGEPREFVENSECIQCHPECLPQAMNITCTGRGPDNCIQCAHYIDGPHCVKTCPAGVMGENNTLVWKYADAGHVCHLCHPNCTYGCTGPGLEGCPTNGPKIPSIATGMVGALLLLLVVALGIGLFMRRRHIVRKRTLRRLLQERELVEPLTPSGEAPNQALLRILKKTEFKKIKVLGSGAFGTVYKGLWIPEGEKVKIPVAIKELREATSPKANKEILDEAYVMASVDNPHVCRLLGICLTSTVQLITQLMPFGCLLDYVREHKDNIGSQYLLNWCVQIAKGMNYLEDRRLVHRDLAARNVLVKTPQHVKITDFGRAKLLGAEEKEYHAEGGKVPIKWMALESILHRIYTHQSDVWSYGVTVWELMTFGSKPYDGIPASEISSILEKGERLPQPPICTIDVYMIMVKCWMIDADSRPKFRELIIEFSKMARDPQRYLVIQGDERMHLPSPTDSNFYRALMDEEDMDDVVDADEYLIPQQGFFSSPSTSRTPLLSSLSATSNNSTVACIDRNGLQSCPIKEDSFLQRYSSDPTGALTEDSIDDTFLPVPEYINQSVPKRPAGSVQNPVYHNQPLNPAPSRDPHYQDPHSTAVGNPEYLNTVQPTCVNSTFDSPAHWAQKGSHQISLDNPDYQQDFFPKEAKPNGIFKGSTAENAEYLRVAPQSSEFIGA

How the values were obtained:
Experiment in all cases: Ba/F3 cell viability, Cell Titer Glo
EGFR G719A T790M = EGFR G719A T790M (Homo sapiens, UniProt P00533, G719A/T790M); settings: read-out: IC50 Values; Ba/F3 cells expressing EGFR G719A T790M, 72 hours
EGFR G719A/R776C = EGFR G719A/R776C (Homo sapiens, UniProt P00533, G719A/R776C); settings: read-out: IC50 Values; Ba/F3 cells expressing EGFR G719A/R776C, 72 hours
EGFR R776C = EGFR R776C (Homo sapiens, UniProt P00533, R776C); settings: read-out: IC50 Values; Ba/F3 cells expressing EGFR R776C, 72 hours
EGFR L861Q = EGFR L861Q (Homo sapiens, UniProt P00533, L861Q); settings: read-out: IC50 Values; Ba/F3 cells expressing EGFR L861Q, 72 hours
EGFR E709K L858R = EGFR E709K L858R (Homo sapiens, UniProt P00533, E709K/L858R); settings: read-out: IC50 Values; Ba/F3 cells expressing EGFR E709K L858R, 72 hours
EGFR L747S = EGFR L747S (Homo sapiens, UniProt P00533, L747S); settings: read-out: IC50 Values; Ba/F3 cells expressing EGFR L747S, 72 hours
EGFR G719A L861Q = EGFR G719A L861Q (Homo sapiens, UniProt P00533, G719A/L861Q); settings: read-out: IC50 Values; Ba/F3 cells expressing EGFR G719A L861Q, 72 hours
EGFR K757R = EGFR K757R (Homo sapiens, UniProt P00533, K757R); settings: read-out: IC50 Values; Ba/F3 cells expressing EGFR K757R, 72 hours
EGFR Ex19del G796S = EGFR Ex19del G796S (Homo sapiens, UniProt P00533, DEL746-750/G796S); settings: read-out: IC50 Values; Ba/F3 cells expressing EGFR Ex19del G796S, 72 hours
EGFR S784F = EGFR S784F (Homo sapiens, UniProt P00533, S784F); settings: read-out: IC50 Values; Ba/F3 cells expressing EGFR S784F, 72 hours
EGFR Ex19del L718Q = EGFR Ex19del L718Q (Homo sapiens, UniProt P00533, DEL746-750/L718Q); settings: read-out: IC50 Values; Ba/F3 cells expressing EGFR Ex19del L718Q, 72 hours
EGFR A767insASV = EGFR A767insASV (Homo sapiens, UniProt P00533, DUP767-769); settings: read-out: IC50 Values; Ba/F3 cells expressing EGFR A767insASV, 72 hours
EGFR E709K = EGFR E709K (Homo sapiens, UniProt P00533, E709K); settings: read-out: IC50 Values; Ba/F3 cells expressing EGFR E709K, 72 hours
EGFR L747P = EGFR L747P (Homo sapiens, UniProt P00533, L747P); settings: read-out: IC50 Values; Ba/F3 cells expressing EGFR L747P, 72 hours
EGFR L858R G724S = EGFR L858R G724S (Homo sapiens, UniProt P00533, G724S/L858R); settings: read-out: IC50 Values; Ba/F3 cells expressing EGFR L858R G724S, 72 hours
EGFR Ex19delT790M L718V = EGFR Ex19delT790M L718V (Homo sapiens, UniProt P00533, DEL746-750/L718V/T790M); settings: read-out: IC50 Values; Ba/F3 cells expressing EGFR Ex19delT790M L718V, 72 hours
EGFR L858R T790M L792H = EGFR L858R T790M L792H (Homo sapiens, UniProt P00533, L792H/L858R/T790M); settings: read-out: IC50 Values; Ba/F3 cells expressing EGFR L858R T790M L792H, 72 hours
EGFR Ex19del/C797S = EGFR Ex19del/C797S (Homo sapiens, UniProt P00533, C797S/DEL746-750); settings: read-out: IC50 Values; Ba/F3 cells expressing EGFR Ex19del/C797S, 72 hours
EGFR V769L = EGFR V769L (Homo sapiens, UniProt P00533, V769L); settings: read-out: IC50 Values; Ba/F3 cells expressing EGFR V769L, 72 hours
EGFR T790M = EGFR T790M (Homo sapiens, UniProt P00533, T790M); settings: read-out: IC50 Values; Ba/F3 cells expressing EGFR T790M, 72 hours

Cc1cc(C(=O)Nc2nc3cccc(Cl)c3n2[C@@H]2CCCCN(C(=O)/C=C/CN(C)C)C2)ccn1
IC50 (EGFR G719A T790M): 34.4 nM
IC50 (EGFR G719A/R776C): 56.5 nM
IC50 (EGFR R776C): 369 nM
IC50 (EGFR L861Q): 83.4 nM
IC50 (EGFR E709K L858R): 25.8 nM
IC50 (EGFR L747S): 81.7 nM
IC50 (EGFR G719A L861Q): 68.9 nM
IC50 (EGFR K757R): 624 nM
IC50 (EGFR Ex19del G796S): 210 nM
IC50 (EGFR S784F): 403 nM
IC50 (EGFR Ex19del L718Q): 72 nM
IC50 (EGFR A767insASV): 828 nM
IC50 (EGFR E709K): 388 nM
IC50 (EGFR L747P): 288 nM
IC50 (EGFR L858R G724S): 248 nM
IC50 (EGFR Ex19delT790M L718V): 211 nM
IC50 (EGFR L858R T790M L792H): 5570 nM
IC50 (EGFR Ex19del/C797S): 3980 nM
IC50 (EGFR V769L): 254 nM
IC50 (EGFR T790M): 151 nM
